{"source": "patent US6194450A", "about": "“Polyaromatic heterocyclic compounds and pharmaceutical compositions comprised thereof” (Centre International de Recherches Dermatologiques Galderma, priority 1995, dated 2001)", "system": "mouse embryonic teratocarcinoma F9 cells", "experiment": "Differentiation of mouse embryonic teratocarcinoma F9 cells (plasminogen activator secretion)", "format": "cell-based", "conditions": "concentration producing half of the maximum amount of plasminogen activator secreted", "excerpt": "Their activities may also be measured in tests of cell transactivation using pretransfected recombinant RAR or RXR receptors (B. A. Bernard et al, Biochemical and Biophysical Research Communication, vol. 186, 977-983 (1992); M. F. Boehm et al, Journal of Medicinal Chemistry, 37, 408-414 (1994)).\n(a) After treatment with the compounds indicated, the mouse embryonic teratocarcinoma F9 cells differentiated into endodermal cells. This differentiation was characterized by the secretion of the plasminogen activator into the culture medium. The activity of the compound is expressed by the AC50 value, which represents the concentration of test compound which produces half of the maximum amount of plasminogen activator secreted.", "data": [{"compound": "COc1ccc(C2=Cc3ccc(C(=O)O)cc3OC2)cc1C12CC3CC(CC(C3)C1)C2", "note": "[Example 1, 3-[(3-(1-adamantyl)-4-methoxyphenyl)-2H-1-benzopyran]-7-carboxylic acid]", "values": [{"measurement": "AC50", "value": 34, "unit": "nM"}]}]}
